Measurements: patent publication US7473788B2, “Analogs of terpene trilactones from Ginkgo biloba and related compounds and uses thereof” (The Trustees of Columbia University in the City of New York, priority 2002, dated 2009)

Protein sequences, listed by entry. Tags and fused reporters are not part of them. Lines headed by an entry give the natural chain unless they say otherwise; changes in a name come on top.
UniProt P21556: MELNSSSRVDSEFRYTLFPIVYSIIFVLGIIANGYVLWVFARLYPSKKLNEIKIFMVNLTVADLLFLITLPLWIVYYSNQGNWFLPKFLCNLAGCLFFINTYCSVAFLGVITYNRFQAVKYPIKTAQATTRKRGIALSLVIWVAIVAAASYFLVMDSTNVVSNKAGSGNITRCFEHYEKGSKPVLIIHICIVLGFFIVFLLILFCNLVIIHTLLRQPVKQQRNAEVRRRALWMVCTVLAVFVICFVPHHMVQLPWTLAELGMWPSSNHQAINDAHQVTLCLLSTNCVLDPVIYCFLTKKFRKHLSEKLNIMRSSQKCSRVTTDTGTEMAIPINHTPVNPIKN

How the values were obtained:
PAFR [1] = biological target: T1, PAFR (Cavia porcellus, UniProt P21556); experiment: Radioligand binding assay, [^3H]-WEB 2086 displacement, membrane fractions of PAFR-Transgenic mice (compounds 16-31); details: Inhibition of [^3H]-WEB 2086 binding, means of two independent experiments performed in triplicate
PAFR [2] = biological target: T1, PAFR; experiment: Radioligand binding assay, [^3H]-WEB 2086 displacement, membrane fractions of PAFR-Tg mice (compounds 1-15); details: Inhibition of [^3H]-WEB 2086 binding; cloned PAFR; Cheng-Prusoff from IC50

Structure (SMILES) | Ki (PAFR [1]) | Ki (PAFR [2]) | Ki (PAFR [1]; listed as 7α-F-GB (21))
CC1C(=O)OC2C(O)C34C5OC(=O)C3(OC3OC(=O)C(O)C34C(C(C)(C)C)C5N)C12O (centres unmarked) | 8640 nM | – | –
CC1C(=O)OC2C(O)C34C5OC(=O)C3(OC3OC(=O)C(O)C34C(C(C)(C)C)C5Cl)C12O (stereo not drawn) [7α-Cl-GB (22), 7α-Chloro Ginkgolide B] | 110 nM | – | –
CC1C(=O)OC2C(O)C34C5OC(=O)C3(OC3OC(=O)C(O)C34C(C(C)(C)C)C5F)C12O (centres unmarked) [Compound 13, 7-Fluoro ginkgolide B] | – | 990 nM | 990 nM
CC1C(=O)OC2C(O)C34C5CC(C(C)(C)C)C36C(OC(=O)C6OCc3ccc(C(=O)c6ccccc6)cc3)OC4(C(=O)O5)C12O (centres unmarked) | – | 150 nM | –
CC1C(=O)OC2C(O)C34C5OC(=O)C3(OC3OC(=O)C(OCc6ccc(C7(C(F)(F)F)N=N7)cc6)C34C(C(C)(C)C)C5O)C12O (centres unmarked) | – | 470 nM | –
CC1C(=O)OC2C(O)C34C5OC(=O)C3(OC3OC(=O)C(OCc6ccc(C(=O)c7ccccc7)cc6)C34C(C(C)(C)C)C5O)C12O (centres unmarked) | – | 580 nM | –
CC1C(=O)OC2C(O)C34C5CC(C(C)(C)C)C36C(OC(=O)C6OCCF)OC4(C(=O)O5)C12O (centres unmarked) | – | 4870 nM | –
